Data published in PMC2890073 (Immunogenetics, 2010).

Tested on: Mamu-B*08301

In the case of FPFKYAAAF, the “direct binding of radiolabeled ligand to purified Mamu-B*08301” value is reported as “did not bind”.
